Test results: patent publication US20090099157A1, “TETRAHYDRO-PYRAZOLO-PYRIDINE THIOETHER MODULATORS OF CATHEPSIN S” (priority 2007, published 2009)

The chains behind the UniProt entries cited, without tags or fusion partners. Residues count along the entry.
UniProt P25774, 115-331: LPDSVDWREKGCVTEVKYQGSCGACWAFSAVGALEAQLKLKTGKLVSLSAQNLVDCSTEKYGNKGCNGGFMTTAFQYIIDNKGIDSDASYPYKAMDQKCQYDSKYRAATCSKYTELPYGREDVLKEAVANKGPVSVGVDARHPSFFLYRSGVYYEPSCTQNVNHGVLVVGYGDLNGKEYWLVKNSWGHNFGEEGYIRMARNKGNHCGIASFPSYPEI

Molecular target: Recombinant human cathepsin S (CatS) (Homo sapiens, UniProt P25774)
Test: biochemical

SMILES	pIC50
CS(=O)(=O)N1CCc2c(c(-c3ccc(C(F)(F)F)c(SCC(=O)N4CC[C@H](O)C4)c3)nn2CC(O)CN2CCC(c3ccccn3)CC2)C1 (stereo partly drawn) [Example 709, (3S)-1-({[5-{1-[2-Hydroxy-3-(4-pyridin-2-ylpiperidin-1-yl)propyl]-5-(methylsulfonyl)-4,5,6,7-tetrahydro-1H-pyrazolo[4,3-c]pyridin-3-yl}-2-(trifluoromethyl)phenyl]sulfanyl}acetyl)pyrrolidin-3-ol]	8.10
CS(=O)(=O)N1CCc2c(c(-c3ccc(C(F)(F)F)c(SCCN4CCC(F)CC4)c3)nn2C[C@@H](O)CN2CCCCC2CCO)C1 (stereo partly drawn) [Example 620, (2S)-1-{3-[3-{[2-(4-Fluoropiperidin-1-yl)ethyl]sulfanyl}-4-(trifluoromethyl)phenyl]-5-(methylsulfonyl)-4,5,6,7-tetrahydro-1H-pyrazolo[4,3-c]pyridin-1-yl}-3-[2-(2-hydroxyethyl)piperidin-1-yl]propan-2-ol]	6.07
Cn1c(=O)n(C2CCN(CC(O)Cn3nc(-c4ccc(C(F)(F)F)c(SCCN5CCCCC5)c4)c4c3CCNC4)CC2)c2cc(Cl)ccc21 (stereo not shown) [Example 762, 5-Chloro-3-{1-[2-hydroxy-3-(3-{3-[(2-piperidin-1-ylethyl)sulfanyl]-4-(trifluoromethyl)phenyl}-4,5,6,7-tetrahydro-1H-pyrazolo[4,3-c]pyridin-1-yl)propyl]piperidin-4-yl}-1-methyl-1,3-dihydro-2H-benzimidazol-2-one]	6.85
CCCSc1cc(-c2nn(CCCN3CCOCC3)c3c2CN(S(C)(=O)=O)CC3)ccc1Cl [Example 132, 3-(4-Chloro-3-propylsulfanyl-phenyl)-5-methanesulfonyl-1-(3-morpholin-4-yl-propyl)-4,5,6,7-tetrahydro-1H-pyrazolo[4,3-c]pyridine]	5.44
COc1cccc(N2CCN(CC(O)Cn3nc(-c4ccc(C(F)(F)F)c(SCCN5CCCCC5)c4)c4c3CCNC4)CC2)c1 (stereo not shown) [Example 451, 1-{4-[3-(Methyloxy)phenyl]piperazin-1-yl}-3-(3-{3-[(2-piperidin-1-ylethyl)sulfanyl]-4-(trifluoromethyl)phenyl}-4,5,6,7-tetrahydro-1H-pyrazolo[4,3-c]pyridin-1-yl)propan-2-ol]	6.00
CS(=O)(=O)N1CCc2c(c(-c3ccc(C(F)(F)F)c(SCC(=O)Nc4ccc(OCc5ccccc5)cc4)c3)nn2CC(O)CN2CCC(N3CCCC3=O)CC2)C1 (stereo not shown) [Example 72, N-(4-Benzyloxy-phenyl)-2-[5-(1-{2-hydroxy-3-[4-(2-oxo-pyrrolidin-1-yl)-piperidin-1-yl]-propyl}-5-methanesulfonyl-4,5,6,7-tetrahydro-1H-pyrazolo[4,3-c]pyridin-3-yl)-2-trifluoromethyl-phenylsulfanyl]-acetamide]	5.98
CC1C(=O)NCCN1CCSc1cc(-c2nn(CC(O)CN3CCC(c4ccccn4)CC3)c3c2CN(S(C)(=O)=O)CC3)ccc1C(F)(F)F (stereo not shown) [Example 168, 4-(2-{[5-{1-[2-Hydroxy-3-(4-pyridin-2-ylpiperidin-1-yl)propyl]-5-(methylsulfonyl)-4,5,6,7-tetrahydro-1H-pyrazolo[4,3-c]pyridin-3-yl}-2-(trifluoromethyl)phenyl]sulfanyl}ethyl)-3-methylpiperazin-2-one]	7.52
COc1ccccc1C1CCN(CC(O)Cn2nc(-c3ccc(C(F)(F)F)c(SCC(=O)N4CCOCC4)c3)c3c2CCN(C(=O)CO)C3)CC1 (stereo not shown) [Example 275, 1-[5-(Hydroxyacetyl)-3-{3-[(2-morpholin-4-yl-2-oxoethyl)sulfanyl]-4-(trifluoromethyl)phenyl}-4,5,6,7-tetrahydro-1H-pyrazolo[4,3-c]pyridin-1-yl]-3-{4-[2-(methyloxy)phenyl]piperidin-1-yl}propan-2-ol]	8.00
COc1ccccc1C1CCN(CC(O)Cn2nc(-c3ccc(C(F)(F)F)c(SCC(=O)N4CCCC4)c3)c3c2CCNC3)CC1 (stereo not shown) [Example 443, 1-{4-[2-(Methyloxy)phenyl]piperidin-1-yl}-3-(3-{3-[(2-oxo-2-pyrrolidin-1-ylethyl)sulfanyl]-4-(trifluoromethyl)phenyl}-4,5,6,7-tetrahydro-1H-pyrazolo[4,3-c]pyridin-1-yl)propan-2-ol]	7.22
O[C@@H](CN1CCC(c2cccc(Cl)c2)CC1)Cn1nc(-c2ccc(C(F)(F)F)c(SCCN3CCC(F)CC3)c2)c2c1CCNC2 [Example 579, (2S)-1-[4-(3-Chlorophenyl)piperidin-1-yl]-3-{3-[3-{[2-(4-fluoropiperidin-1-yl)ethyl]sulfanyl}-4-(trifluoromethyl)phenyl]-4,5,6,7-tetrahydro-1H-pyrazolo[4,3-c]pyridin-1-yl}propan-2-ol]	6.92
CC(=O)N1CCN(CCSc2cc(-c3nn(CC(O)CN4CCC(c5ccncc5)CC4)c4c3CN(S(C)(=O)=O)CC4)ccc2C(F)(F)F)CC1 (stereo not shown) [Example 828, 1-{3-[3-{[2-(4-Acetylpiperazin-1-yl)ethyl]sulfanyl}-4-(trifluoromethyl)phenyl]-5-(methylsulfonyl)-4,5,6,7-tetrahydro-1H-pyrazolo[4,3-c]pyridin-1-yl}-3-(4-pyridin-4-ylpiperidin-1-yl)propan-2-ol]	6.96
CS(=O)(=O)N1CCc2c(c(-c3ccc(C(F)(F)F)c(SCCN4CC5CCCC5C4)c3)nn2C[C@@H](O)CN2CCCCC2)C1 (stereo partly drawn) [Example 216, (2S)-1-{3-[3-{[2-(Hexahydrocyclopenta[c]pyrrol-2(1H)-yl)ethyl]sulfanyl}-4-(trifluoromethyl)phenyl]-5-(methylsulfonyl)-4,5,6,7-tetrahydro-1H-pyrazolo[4,3-c]pyridin-1-yl}-3-piperidin-1-ylpropan-2-ol]	6.77
CS(=O)(=O)N1CCc2c(c(-c3ccc(C(F)(F)F)c(SCC(=O)N4CC[C@@H](O)C4)c3)nn2CC(O)CN2CCN(c3ccccc3O)CC2)C1 (stereo partly drawn) [Example 784, (3R)-1-[({5-[1-{2-Hydroxy-3-[4-(2-hydroxyphenyl)piperazin-1-yl]propyl}-5-(methylsulfonyl)-4,5,6,7-tetrahydro-1H-pyrazolo[4,3-c]pyridin-3-yl]-2-(trifluoromethyl)phenyl}sulfanyl)acetyl]pyrrolidin-3-ol]	7.40
CS(=O)(=O)N1CCc2c(c(-c3ccc(C(F)(F)F)c(SCCN4CCC(N5CCCC5)CC4)c3)nn2CC(O)CN2CCC(C(=O)N3CCCCC3)CC2)C1 (stereo not shown) [Example 890, 1-{5-(Methylsulfonyl)-3-[3-{[2-(4-pyrrolidin-1-ylpiperidin-1-yl)ethyl]sulfanyl}-4-(trifluoromethyl)phenyl]-4,5,6,7-tetrahydro-1H-pyrazolo[4,3-c]pyridin-1-yl}-3-[4-(piperidin-1-ylcarbonyl)piperidin-1-yl]propan-2-ol]	6.19
CN1CCN(CC(O)Cn2nc(-c3ccc(C(F)(F)F)c(SCCN4CCCC4)c3)c3c2CCN(S(C)(=O)=O)C3)CC1 (stereo not shown) [Example 348, 1-(4-Methylpiperazin-1-yl)-3-[5-(methylsulfonyl)-3-{3-[(2-pyrrolidin-1-ylethyl)sulfanyl]-4-(trifluoromethyl)phenyl}-4,5,6,7-tetrahydro-1H-pyrazolo[4,3-c]pyridin-1-yl]propan-2-ol]	5.42
CS(=O)(=O)N1CCc2c(c(-c3ccc(C(F)(F)F)c(SCCNS(=O)(=O)c4ccccc4)c3)nn2CC(O)CN2CCC(N3CCCC3=O)CC2)C1 (stereo not shown) [Example 875, N-[2-({5-[1-{2-Hydroxy-3-[4-(2-oxopyrrolidin-1-yl)piperidin-1-yl]propyl}-5-(methylsulfonyl)-4,5,6,7-tetrahydro-1H-pyrazolo[4,3-c]pyridin-3-yl]-2-(trifluoromethyl)phenyl}sulfanyl)ethyl]benzenesulfonamide]	6.92
CC(=O)OCC(=O)N1CCc2c(c(-c3ccc(C(F)(F)F)c(SCCNC(=O)OCc4ccccc4)c3)nn2CC(O)CN2CCC(c3ccccn3)CC2)C1 (stereo not shown) [Example 885, 2-{1-[2-Hydroxy-3-(4-pyridin-2-ylpiperidin-1-yl)propyl]-3-[3-{[2-({[(phenylmethyl)oxy]carbonyl}amino)ethyl]sulfanyl}-4-(trifluoromethyl)phenyl]-1,4,6,7-tetrahydro-5H-pyrazolo[4,3-c]pyridin-5-yl}-2-oxoethyl acetate]	7.15
CS(=O)(=O)N1CCc2c(c(-c3ccc(C(F)(F)F)c(SCCN4CCOCC4)c3)nn2CC(O)CN2CCC(C(F)(F)F)CC2)C1 (stereo not shown) [Example 642, 1-[5-(Methylsulfonyl)-3-{3-[(2-morpholin-4-ylethyl)sulfanyl]-4-(trifluoromethyl)phenyl}-4,5,6,7-tetrahydro-1H-pyrazolo[4,3-c]pyridin-1-yl]-3-[4-(trifluoromethyl)piperidin-1-yl]propan-2-ol]	6.57
CS(=O)(=O)NC1CCN(CC(O)Cn2nc(-c3ccc(C(F)(F)F)c(SCC(=O)N4CCOCC4)c3)c3c2CCN(S(C)(=O)=O)C3)CC1 (stereo not shown) [Example 783, N-(1-{2-Hydroxy-3-[5-(methylsulfonyl)-3-{3-[(2-morpholin-4-yl-2-oxoethyl)sulfanyl]-4-(trifluoromethyl)phenyl}-4,5,6,7-tetrahydro-1H-pyrazolo[4,3-c]pyridin-1-yl]propyl}piperidin-4-yl)methanesulfonamide]	7.15
O=C(CSc1cc(-c2nn(CC(O)CN3CCC(C(=O)N4CCCC4)CC3)c3c2CN(C(=O)CO)CC3)ccc1C(F)(F)F)N1CCOCC1 (stereo not shown) [Example 721, 1-[5-(Hydroxyacetyl)-3-{3-[(2-morpholin-4-yl-2-oxoethyl)sulfanyl]-4-(trifluoromethyl)phenyl}-4,5,6,7-tetrahydro-1H-pyrazolo[4,3-c]pyridin-1-yl]-3-[4-(pyrrolidin-1-ylcarbonyl)piperidin-1-yl]propan-2-ol]	7.35
O=C1CCCN1C1CCN(C[C@H](O)Cn2nc(-c3ccc(C(F)(F)F)c(SCCN4CCC(F)CC4)c3)c3c2CCNC3)CC1 [Example 429, 1-{1-[(2S)-3-{3-[3-{[2-(4-Fluoropiperidin-1-yl)ethyl]sulfanyl}-4-(trifluoromethyl)phenyl]-4,5,6,7-tetrahydro-1H-pyrazolo[4,3-c]pyridin-1-yl}-2-hydroxypropyl]piperidin-4-yl}pyrrolidin-2-one]	6.09
CC1CCN(CCSc2cc(-c3nn(C[C@@H](O)CN4CCC(C)CC4)c4c3CN(S(C)(=O)=O)CC4)ccc2C(F)(F)F)CC1 [Example 444, (2S)-1-(4-Methylpiperidin-1-yl)-3-{3-[3-{[2-(4-methylpiperidin-1-yl)ethyl]sulfanyl}-4-(trifluoromethyl)phenyl]-5-(methylsulfonyl)-4,5,6,7-tetrahydro-1H-pyrazolo[4,3-c]pyridin-1-yl}propan-2-ol]	6.74

pIC50: −log10 of the molar value.
